These results are taken from PMC5681660, “Reduced hepatitis B and D viral entry using clinically applied drugs as novel inhibitors of the bile acid transporter NTCP” (Scientific Reports, 2017).

Counter-ions that a name gives are not always drawn.

The target in one assay is T1, human NTCP (Homo sapiens, UniProt Q14973).
T1 sequence (Q14973 1-349): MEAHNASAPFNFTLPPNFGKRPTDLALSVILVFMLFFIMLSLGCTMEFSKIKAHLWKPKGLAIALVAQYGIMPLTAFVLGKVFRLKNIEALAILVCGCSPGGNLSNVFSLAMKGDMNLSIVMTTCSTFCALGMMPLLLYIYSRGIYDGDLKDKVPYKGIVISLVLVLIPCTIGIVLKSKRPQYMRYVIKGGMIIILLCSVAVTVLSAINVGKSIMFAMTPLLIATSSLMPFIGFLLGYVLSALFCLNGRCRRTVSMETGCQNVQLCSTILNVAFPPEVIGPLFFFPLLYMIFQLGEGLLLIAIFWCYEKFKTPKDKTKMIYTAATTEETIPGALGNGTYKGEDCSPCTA
The assay is described as follows: Screening fluorescent competitive Myrcludex B-FITC binding assay (96-well, 10 µM drug). The conditions noted are these: 0.5 h, read-out: %NTCP binding, screening Myrcludex B-FITC binding, 10 µM drug, Prestwick library.
`C[n+]1ccccc1/C=N/O` [Pralidoxime chloride]: the remaining activity at 10 µM worked out at 85.8%.

As for `CCC1(CC)C(=O)C=CNC1=O` [Pyrithyldione], the remaining activity at 10 µM amounted to 93.3%.

As for `CCN(C)C(=O)Oc1cccc([C@H](C)N(C)C)c1` [Rivastigmine], the remaining activity at 10 µM worked out at 85.7%.

Take `C#CCN(C)[C@H](C)Cc1ccccc1` [Selegiline hydrochloride]: the remaining activity at 10 µM turned out to be 78%.

The same assay, now with this note: screening Myrcludex B-FITC binding, 10 µM drug.
Molecule `CS(=O)(=O)O.Cc1ccc2c(c1)c1c3n2CCNC3CCC1` (stereo not drawn) [Pirlindole mesylate] came in with a B-score binding assay of -0.677.

In turn, `CC(C)(C)C(=O)OCOC(=O)[C@@H]1N2C(=O)[C@@H](NC(=O)[C@H](N)c3ccccc3)[C@H]2SC1(C)C` [Pivampicillin] returned a B-score binding assay of -3.501.

Molecule `CC(=O)Nc1ccc(OCC(O)CNC(C)C)cc1` (stereo not drawn) [Practolol] had a B-score binding assay of -0.221.

Regarding `C[n+]1ccccc1/C=N/O` [Pralidoxime chloride], the B-score binding assay is listed as -0.067.

`O=C(Nc1cccc2c(=O)cc(-c3nnn[nH]3)oc12)c1ccc(OCCCCc2ccccc2)cc1` [Pranlukast]: the B-score binding assay is given as -0.508.

Turning to `CC[C@H](C)C(=O)O[C@H]1C[C@H](O)C=C2C=C[C@H](C)[C@H](CC[C@@H](O)C[C@@H](O)CC(=O)O)[C@H]21` [Pravastatin], the B-score binding assay came out at 1.277.

In the case of `O=C(C1CCCCC1)N1CC(=O)N2CCc3ccccc3C2C1` (stereo not drawn) [Praziquantel], the B-score binding assay is recorded as -1.104.

`CCOC(=O)O[C@]1(C(=O)COC(=O)CC)CC[C@H]2[C@@H]3CCC4=CC(=O)C=C[C@]4(C)[C@H]3[C@@H](O)C[C@@]21C` [Prednicarbate] registered a B-score binding assay of -2.046.

For the molecule `C[C@]12C=CC(=O)C=C1CC[C@@H]1[C@@H]2[C@@H](O)C[C@@]2(C)[C@H]1CC[C@]2(O)C(=O)CO` [Prednisolone], the B-score binding assay is given as 0.002.

On to `CCCC(C(=O)OCCN(CC)CC)(c1ccccc1)c1ccccc1` [Proadifen hydrochloride], for which the B-score binding assay is given as 1.307.

As for `CN1CCN(CCCN2c3ccccc3Sc3ccc(Cl)cc32)CC1` [Prochlorperazine dimaleate], the B-score binding assay is reported as -0.656.

For the molecule `OC(CCN1CCCC1)(c1ccccc1)C1CCCCC1` (stereo not drawn) [Procyclidine hydrochloride], the B-score binding assay is recorded as 0.82.

`CC(=O)[C@H]1CC[C@H]2[C@@H]3CCC4=CC(=O)CC[C@]4(C)[C@H]3CC[C@]12C` [Progesterone]: the B-score binding assay is reported as -0.466.

Consider `CCCN(CCC)C(=O)C(CCC(=O)O)NC(=O)c1ccccc1` (stereo not drawn) [Proglumide], for which the B-score binding assay is given as -2.435.

Take `CC(C)[N+](C)(CCOC(=O)C1c2ccccc2Oc2ccccc21)C(C)C` [Propantheline bromide]: the B-score binding assay is reported as -0.328.

For the molecule `CC[N+](C)(CC)CCC[n+]1c(-c2ccccc2)c2cc(N)ccc2c2ccc(N)cc21.[I-].[I-]` [Propidium iodide], the B-score binding assay is 3.509.

As to `CCCOc1cc(N)ccc1C(=O)OCCN(CC)CC` [Propoxycaine hydrochloride], the B-score binding assay is recorded as -2.752.

`C[C@@H]1O[C@@H](O[C@@H]2C=C3CC[C@@H]4[C@H](CC[C@]5(C)[C@@H](c6ccc(=O)oc6)CC[C@]45O)[C@@]3(C)CC2)[C@H](O)[C@H](O)[C@H]1O` [Proscillaridin A] gave a B-score binding assay of -0.877.

The molecule `NC(=O)c1cnccn1` [Pyrazinamide] displayed a B-score binding assay of -2.276.

On to `CCC1(CC)C(=O)C=CNC1=O` [Pyrithyldione], for which the B-score binding assay was -0.586.

The molecule `CC(=O)SCC(Cc1ccccc1)C(=O)NCC(=O)OCc1ccccc1` (stereo not drawn) [Racecadotril] returned a B-score binding assay of -0.55.

Molecule `COc1ccccc1OCC(O)CN1CCN(CC(=O)Nc2c(C)cccc2C)CC1` (stereo not drawn) [Ranolazine] displayed a B-score binding assay of -0.712.

As for `CCN1CCC[C@H]1CNC(=O)c1c(OC)ccc(Br)c1OC.Cl` [Remoxipride Hydrochloride], the B-score binding assay is given as -0.332.

On to `CCOc1cc(CC(=O)N[C@@H](CC(C)C)c2ccccc2N2CCCCC2)ccc1C(=O)O` [Repaglinide], for which the B-score binding assay worked out at 0.235.

For the molecule `CC1=C(/C=C/C(C)=C/C=C/C(C)=C/C(=O)O)C(C)(C)CCC1` [Retinoic acid], the B-score binding assay was -2.311.

The molecule `CO[C@H]1/C=C/O[C@@]2(C)Oc3c(C)c(O)c4c(O)c(c(/C=N/N5CCN(C6CCCC6)CC5)c(O)c4c3C2=O)NC(=O)/C(C)=C\C=C\[C@H](C)[C@H](O)[C@@H](C)[C@@H](O)[C@@H](C)[C@H](OC(C)=O)[C@@H]1C` [Rifapentine] registered a B-score binding assay of -2.82.

In the case of `CO[C@H]1/C=C/O[C@@]2(C)Oc3c(C)c(O)c4c(O)c(c5c(nc6cc(C)ccn65)c4c3C2=O)NC(=O)/C(C)=C\C=C\[C@H](C)[C@H](O)[C@@H](C)[C@@H](O)[C@@H](C)[C@H](OC(C)=O)[C@@H]1C` [Rifaximin], the B-score binding assay was 0.696.

Consider `CCN(C)C(=O)Oc1cccc([C@H](C)N(C)C)c1` [Rivastigmine], for which the B-score binding assay turned out to be 0.007.

`CS(=O)(=O)c1ccc(C2=C(c3ccccc3)C(=O)OC2)cc1` [Rofecoxib] came in with a B-score binding assay of -3.072.

Regarding `CC[C@H]1OC(=O)[C@H](C)[C@@H](O[C@H]2C[C@@](C)(OC)[C@@H](O)[C@H](C)O2)[C@H](C)[C@@H](O[C@@H]2O[C@H](C)C[C@H](N(C)C)[C@H]2O)[C@](C)(O)C[C@@H](C)/C(=N\OCOCCOC)[C@H](C)[C@@H](O)[C@]1(C)O` [Roxithromycin], the B-score binding assay is recorded as -2.478.

`CN1CCN(c2c(F)cc3c(=O)c(C(=O)O)cn4c3c2SCC4)CC1` [Rufloxacin] came in with a B-score binding assay of -0.201.

For the molecule `CC(C)(C)NCC(O)c1ccc(O)c(CO)c1` (stereo not drawn) [Salbutamol], the B-score binding assay is -2.567.

`Br.C[N+]1([O-])[C@@H]2CC(OC(=O)[C@H](CO)c3ccccc3)C[C@H]1[C@@H]1O[C@@H]12` (stereo partly drawn) [Scopolamin-N-oxide hydrobromide]: the B-score binding assay was -0.39.

`CN1[C@@H]2CC(OC(=O)[C@H](CO)c3ccccc3)C[C@H]1[C@@H]1O[C@@H]12.Cl` (stereo partly drawn) [Scopolamine hydrochloride] displayed a B-score binding assay of -0.469.

`Cc1ncc([N+](=O)[O-])n1CC(C)O` (stereo not drawn) [Secnidazole] displayed a B-score binding assay of 0.076.

Molecule `C#CCN(C)[C@H](C)Cc1ccccc1` [Selegiline hydrochloride] displayed a B-score binding assay of 0.539.

`NCCc1c[nH]c2ccc(O)cc12` [Serotonin hydrochloride] gave a B-score binding assay of -8.308.

Molecule `CC(C)CC(N(C)C)C1(c2ccc(Cl)cc2)CCC1.Cl` (stereo not drawn) [Sibutramine HCl] came in with a B-score binding assay of -2.027.

`C[C@H](Cc1cc2c(c(C(N)=O)c1)N(CCCO)CC2)NCCOc1ccccc1OCC(F)(F)F` [Silodosin]: the B-score binding assay is listed as -0.989.

Take `C[C@@H]1CN(c2c(F)c(N)c3c(=O)c(C(=O)O)cn(C4CC4)c3c2F)C[C@H](C)N1` [Sparfloxacin]: the B-score binding assay is listed as -0.128.

The molecule `CN[C@@H]1[C@H](O)[C@H](NC)[C@H]2O[C@@]3(O)C(=O)C[C@@H](C)O[C@H]3O[C@@H]2[C@H]1O.Cl.Cl` [Spectinomycin dihydrochloride] displayed a B-score binding assay of -2.764.

Molecule `O=C(CCCN1CCC2(CC1)C(=O)NCN2c1ccccc1)c1ccc(F)cc1` [Spiperone] showed a B-score binding assay of 0.875.

`[H]/N=C(/N)N[C@H]1[C@H](O)[C@@H](O)[C@H](O[C@@H]2O[C@@H](C)[C@](O)(C=O)[C@H]2O[C@@H]2O[C@@H](CO)[C@H](O)[C@@H](O)[C@@H]2NC)[C@@H](N/C(N)=N\[H])[C@@H]1O` [Streptomycin sulfate]: the B-score binding assay was -7.065.

The molecule `O=C(O)CCC(=O)Nc1ccc(S(=O)(=O)Nc2nccs2)cc1` [Succinylsulfathiazole] registered a B-score binding assay of -1.868.

`Nc1ccc(S(=O)(=O)NC(=O)c2ccccc2)cc1` [Sulfabenzamide]: the B-score binding assay is -0.412.

For `CC(=O)[N-]S(=O)(=O)c1ccc(N)cc1.O.[Na+]` [Sulfacetamide sodic hydrate], the B-score binding assay was -1.286.

For the molecule `Nc1ccc(S(=O)(=O)Nc2ccc(Cl)nn2)cc1` [Sulfachloropyridazine], the B-score binding assay is recorded as -0.75.

In the case of `COc1cnc(NS(=O)(=O)c2ccc(N)cc2)nc1` [Sulfameter], the B-score binding assay is 0.699.

The molecule `O=C(O)c1cc(/N=N/c2ccc(S(=O)(=O)Nc3ccccn3)cc2)ccc1O` [Sulfasalazine] registered a B-score binding assay of -3.682.

On to `CC1=C(CC(=O)O)c2cc(F)ccc2/C1=C\c1ccc([S+](C)[O-])cc1` (stereo not drawn) [Sulindac], for which the B-score binding assay is -2.235.

For `CC(C(=O)O)c1ccc(C(=O)c2cccs2)cc1` (stereo not drawn) [Suprofen], the B-score binding assay came to 1.508.

On to `C[C@]1(Cn2ccnn2)[C@H](C(=O)O)N2C(=O)C[C@H]2S1(=O)=O` [Tazobactam], for which the B-score binding assay is -0.729.

For the molecule `O=c1[nH]c(=O)n(C2CCCO2)cc1F` (stereo not drawn) [Tegafur], the B-score binding assay was determined as 0.934.

The same assay, now with this note: screening Myrcludex B-FITC binding, 10 µM drug, Prestwick library.
On to `CS(=O)(=O)O.Cc1ccc2c(c1)c1c3n2CCNC3CCC1` (stereo not drawn) [Pirlindole mesylate], for which the “%NTCP binding” value is on record as 93.7427%.

Consider `CC[N+](C)(CC)CCC[n+]1c(-c2ccccc2)c2cc(N)ccc2c2ccc(N)cc21.[I-].[I-]` [Propidium iodide], for which the “%NTCP binding” value is on record as 124.519%.

Consider `CN(C)C(=O)Oc1ccc[n+](C)c1.[I-]` [Pyridostigmine iodide], for which the “%NTCP binding” value is 92.5819%.

In the case of `CCN1CCC[C@H]1CNC(=O)c1c(OC)ccc(Br)c1OC.Cl` [Remoxipride Hydrochloride], the “%NTCP binding” value stood at 104.815%.

As for `CN1[C@@H]2CC(OC(=O)[C@H](CO)c3ccccc3)C[C@H]1[C@@H]1O[C@@H]12.Cl` (stereo partly drawn) [Scopolamine hydrochloride], the “%NTCP binding” value was 76.4424%.

Still in this assay, the particulars now being: screening Myrcludex B-FITC binding, 10 µM drug; B-score.
For the molecule `COc1cc([C@@H]2c3cc4c(cc3[C@H](O)[C@H]3COC(=O)[C@H]23)OCO4)cc(OC)c1OC` [Podophyllotoxin], the B-score binding assay is recorded as 2.162.

In turn, `CN(C)C(=O)Oc1ccc[n+](C)c1.[I-]` [Pyridostigmine iodide] displayed a B-score binding assay of 3.334.

`CCc1nc(N)nc(N)c1-c1ccc(Cl)cc1` [Pyrimethamine] showed a B-score binding assay of 1.264.

With `CCCCC1(COC(=O)CCC(=O)O)C(=O)N(c2ccccc2)N(c2ccccc2)C1=O` [Suxibuzone], the B-score binding assay was found to be 1.495.
